{
  "sequences": {"note": "Amino acid sequences for entries named in this document (tags omitted). A change or cut given only in a name is not applied to a line headed by its entry.", "UniProt Q06187": "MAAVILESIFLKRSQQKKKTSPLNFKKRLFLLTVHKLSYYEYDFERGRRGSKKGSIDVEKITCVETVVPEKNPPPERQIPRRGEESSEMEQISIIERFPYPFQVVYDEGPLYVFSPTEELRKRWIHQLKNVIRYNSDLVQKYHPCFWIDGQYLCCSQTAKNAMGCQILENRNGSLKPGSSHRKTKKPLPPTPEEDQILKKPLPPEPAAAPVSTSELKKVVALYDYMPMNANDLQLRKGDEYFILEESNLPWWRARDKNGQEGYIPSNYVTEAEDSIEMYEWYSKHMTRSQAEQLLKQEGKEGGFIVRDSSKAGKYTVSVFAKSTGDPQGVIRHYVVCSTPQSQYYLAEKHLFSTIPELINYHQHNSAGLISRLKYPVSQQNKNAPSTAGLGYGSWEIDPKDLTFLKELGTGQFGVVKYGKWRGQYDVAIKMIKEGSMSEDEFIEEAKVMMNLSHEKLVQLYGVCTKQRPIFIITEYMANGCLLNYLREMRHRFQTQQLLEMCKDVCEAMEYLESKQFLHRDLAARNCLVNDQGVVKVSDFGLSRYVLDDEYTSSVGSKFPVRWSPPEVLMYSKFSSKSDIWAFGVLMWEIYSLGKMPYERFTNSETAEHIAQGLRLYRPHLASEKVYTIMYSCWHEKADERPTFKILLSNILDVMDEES"},
  "source": "patent US20240190864A1",
  "about": "(YA THERAPEUTICS INC, priority 2021, published 2024)",
  "molecular_target": "BTK (Homo sapiens, UniProt Q06187)",
  "experiment": "BTK Kinase Test",
  "assay_type": "biochemical",
  "settings": "BTK kinase inhibitory activity; enzyme with compound 30 min, ATP 50 μM, ULight poly GT substrate",
  "experimental": "Dilute 350 ng/uL BTK mother solution with kinase buffer solution (50 mM HEPES, 10 mM MgCl2, 2 mM DTT, 1 mM EGTA, 0.01% Tween 20), and add 6 μL 1.67×0.134 ng/μL working solution (final concentration 0.08 ng/μL), using the nanoliter sampler, add different compounds dissolved by DMSO into the pores, so that the final concentration of the compound is 1000 nM-0.244 nM, and the final concentration of the positive drug is 50 nM-0.0122 nM. Four times the gradient, a total of seven concentrations are available. At the same time, set up blank control pores (without enzyme) and negative control pores (with enzyme, with solvent DMSO), and set up two double pores. After the enzyme reacts with compound or solvent for 30 min, 5×250 μM ATP (final concentration is 50 μM) and 5×0.5 μM Substrate (final concentration 0.1 μμM. ULight poly GT), mix at 1:1, 4 per hole μL is added into the hole; after sealing, add […] to each hole after reacting at room temperature for 2 hours μL 4×8 nM detection reagent (final concentration is 2 nM, Ab), incubate at room temperature for 1 hour; PE instrument reading board (excitation […], emission 665 nm). Calculate the inhibition rate and calculate the IC50 value.",
  "note": "pIC50: −log10 of the molar value.",
  "data": [
    {"substance": "(S)-4-(1-acryloylpiperidin-3-yl)-2-oxo-6-(4-phenoxyphenyl)-2,3-dihydro-1H-imidazo[4,5-c]pyridine-8-carboxamide [Compound 21]", "values": [
      {"measurement": "pIC50", "value": "≥ 8.00"}
    ]}
  ]
}
